T1: BRB1 tyrosine kinase substrate peptide
T1 chain: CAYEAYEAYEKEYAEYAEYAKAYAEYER


Biological target: T1, BRB1 tyrosine kinase substrate peptide

| Protein | Signal to Noise ratio with BRB1 Peptide (TR-FRET kinase assay; kinase 20 nM) | Signal to Noise Ratio with BRB1 Peptide (TR-FRET kinase assay; kinase 0.5 nM) |
| --- | --- | --- |
| INSR (protein) RKRQPDGPLGPLYASSNPEYLSASDVFPCSVYVPDEWEVSREKITLLRELGQGSFGMVYEGNARDIIKGEAETRVAVKTVNESASLRERIEFLNEASVMKGFTCHHVVRLLGVVSKGQPTLVVMELMAHGDLKSYLRSLRPEAENNPGRPPPTLQEMIQMAAEIADGMAYLNAKKFVHRDLAARNCMVAHDFTVKIGDFGMTRDIYETDYYRKGGKGLLPVRWMAPESLKDGVFTTSSDMWSFGVVLWEITSLAEQPYQGLSNEQVLKFVMDGGYLDQPDNCPERVTDLMRMCWQFNPKMRPTFLEIVNLLKDDLHPSFPEVSFFHSEENKAPESEELEMEFEDMENVPLDRSSHCQREEAGGRDGGSSLGFKRSYEEHIPYTHMNGGKKNGRILTLPRSNPS | 4 |  |
| LCK (protein) MGCGCSSHPEDDWMENIDVCENCHYPIVPLDGKGTLLIRNGSEVRDPLVTYEGSNPPASPLQDNLVIALHSYEPSHDGDLGFEKGEQLRILEQSGEWWKAQSLTTGQEGFIPFNFVAKANSLEPEPWFFKNLSRKDAERQLLAPGNTHGSFLIRESESTAGSFSLSVRDFDQNQGEVVKHYKIRNLDNGGFYISPRITFPGLHELVRHYTNASDGLCTRLSRPCQTQKPQKPWWEDEWEVPRETLKLVERLGAGQFGEVWMGYYNGHTKVAVKSLKQGSMSPDAFLAEANLMKQLQHQRLVRLYAVVTQEPIYIITEYMENGSLVDFLKTPSGIKLTINKLLDMAAQIAEGMAFIEERNYIHRDLRAANILVSDTLSCKIADFGLARLIEDNEYTAREGAKFPIKWTAPEAINYGTFTIKSDVWSFGILLTEIVTHGRIPYPGMTNPEVIQNLERGYRMVRPDNCPEELYQLMRLCWKERPEDRPTFDYLRSVLEDFFTATEGQYQPQP |  | 12.3 |

From patent publication US20100015650
